# US7141598B2, “Imidazole derivatives, production method thereof and use thereof” (Takeda Pharmaceutical Company, Ltd., priority 2000, dated 2006)
# Sequences of proteins named here, by UniProt entry; tags and fusion partners are left off.
# UniProt P08684, whole entry: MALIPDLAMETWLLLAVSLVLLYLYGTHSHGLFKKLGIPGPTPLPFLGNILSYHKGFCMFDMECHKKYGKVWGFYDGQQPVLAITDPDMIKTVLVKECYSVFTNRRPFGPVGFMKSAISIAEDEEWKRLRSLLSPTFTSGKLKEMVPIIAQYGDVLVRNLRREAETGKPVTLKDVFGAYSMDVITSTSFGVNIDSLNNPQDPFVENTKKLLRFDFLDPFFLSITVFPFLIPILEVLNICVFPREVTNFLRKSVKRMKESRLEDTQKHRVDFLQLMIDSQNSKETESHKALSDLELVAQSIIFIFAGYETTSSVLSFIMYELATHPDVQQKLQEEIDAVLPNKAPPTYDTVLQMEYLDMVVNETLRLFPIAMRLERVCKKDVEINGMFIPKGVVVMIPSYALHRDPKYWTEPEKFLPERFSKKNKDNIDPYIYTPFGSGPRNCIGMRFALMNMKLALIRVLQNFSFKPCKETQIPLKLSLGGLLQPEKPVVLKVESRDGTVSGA
# Target: T1, human CYP3A4 (Homo sapiens, UniProt P08684)
# T1 construct: purchased GENTEST
# Assay: Assay of human CYP3A4-inhibitory activity
# Assay type: biochemical
# Conditions: testosterone 100 μM, human CYP3A4 10 pmol/ml, 37° C., 30 min; read-out: IC50 (CYP3A4 inhibition, 6β-hydroxytestosterone production)
# Method: Assay of Human CYP3A4-Inhibitory Activity
# Performed as in the following according to Journal of Biological Chemistry, vol. 256, 11937 (1983).
# A phosphate buffer solution (50 mM, pH 7.4) containing testosterone (final concentration 100 μM, hereinafter the same), human CYP3A4 (10 pmol/ml, manufactured by GENTEST), NADPH producing system (0.5 mM NADP, 5 mM glucose-6-phosphate, 5 mM magnesium chloride, 1.5 units/ml glucose-6-phosphate dehydrogenase) and the test compound was incubated at 37° C. for 30 min. Acetonitrile was added to the reaction mixture and the mixture was stirred and centrifuged. The 6β-hydroxytestosterone in the obtained supernatant was analyzed by high performance liquid chromatography.
substance,measurement,value
"6-(6,7-dihydro-5H-pyrrolo[1,2-c]imidazol-7-yl)-N-methyl-2-naphthamide [Reference Example 11, reference compound]",IC50,< 1000 nM
